Data on one compound can be found in patent publication US5620958A, “Bradykinin antagonists” (Coretech, Inc., priority 1994, dated 1997).

Amino acid sequences for entries named in this document (tags omitted).
UniProt P25023, whole entry: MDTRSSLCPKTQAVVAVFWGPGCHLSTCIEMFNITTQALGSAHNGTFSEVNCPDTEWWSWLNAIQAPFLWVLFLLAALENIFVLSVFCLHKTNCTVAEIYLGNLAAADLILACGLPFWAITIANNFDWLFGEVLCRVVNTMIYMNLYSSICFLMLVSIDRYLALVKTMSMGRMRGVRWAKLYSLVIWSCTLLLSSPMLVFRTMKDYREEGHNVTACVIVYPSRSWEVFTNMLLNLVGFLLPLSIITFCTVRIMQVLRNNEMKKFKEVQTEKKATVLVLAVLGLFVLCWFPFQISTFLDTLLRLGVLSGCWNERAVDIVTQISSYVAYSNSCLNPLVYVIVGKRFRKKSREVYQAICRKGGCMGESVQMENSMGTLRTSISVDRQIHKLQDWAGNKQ

In this assay the target is BK2 receptor (Rattus norvegicus, UniProt P25023). The settings on record: Table A; recovery after washing.

Turning to `CC(C)C[C@H](NC(=O)[C@@H](Cc1ccccc1)NC(=O)[C@H](CS)NC(=O)[C@H](Cc1ccccc1)NC(=O)CNC(=O)[C@@H]1C[C@@H](O)CN1C(=O)[C@@H]1CCCN1C(=O)[C@H](CCCNC(=N)N)NC(=O)[C@H](N)CCCNC(=N)N)C(=O)N[C@@H](CCCNC(=N)N)C(=O)O` [CP-0126], the “RU % REC” value was 100%.
